Results as given in EP4825367A1, “COSMETIC COMPOSITION FOR SKIN SOOTHING” (dated 2026).

Legend:
RAW 264.7 cells = test: Nitric oxide (NO) production inhibition in LPS-stimulated RAW 264.7 cells (GRIESS reagent); conditions: 500 ng/mL LPS, 18 hours
Description: To confirm the anti-inflammatory effect of the cosmetic composition of the present invention, the nitric oxide (NO) production inhibitory effect of each prepared sample was evaluated using RAW 264.7 cells.
Specifically, RAW 264.7 cells were pre-treated with each sample as shown in Table 1 below for 30 minutes, and then 500 ng/mL of lipopolysaccharide (LPS) was added, followed by incubation for 18 hours. After incubation, the supernatant was collected, transferred to a 96-well plate, and allowed to react with GRIESS reagent at room temperature for 15 minutes. The absorbance at 540 nm was measured using an ELISA reader, and the NO production inhibitory ability was calculated using the following equation. [formula] • * Positive control: 100 µM L-NMMA (80.9% NO production inhibition rate) • * Negative control: RAW 264.7 cells treated with LPS only [Table 1]

[1] = Skin permeability with Franz Cell and transdermal diffusion testing membrane; conditions: Troxerutin 1%, 100 µL applied, 24 hours, 37.5 °C, 50% relative humidity
Description: The skin permeability of the combination of troxerutin and the arginine-glutamate eutectic mixture was evaluated.
Specifically, the amount of skin adsorption was evaluated using a Franz Cell (FCDV-15, Labfine). A transdermal diffusion testing membrane (Start-M 25 mm, Merck), which can predict skin permeability, was positioned between a donor chamber and a receptor chamber, and 3 mL of PBS solution was added to the receptor chamber.
As the evaluation method, 100 µL of each of [1% troxerutin] and [1% troxerutin + 10% arginine-glutamate eutectic mixture] was applied onto the membrane. Subsequently, rolling was performed 10 times for 30 seconds using a polyethylene stick, and permeation was then allowed to proceed in a constant temperature and humidity chamber at 37.5 °C and 50% relative humidity for 24 hours. Thereafter, the content of troxerutin in the receptor chamber was measured.
The concentration of troxerutin was determined by fluorescence spectrum measurement (Ex: 360 nm, measurement range: 380 to 700 nm). After quantifying the concentration based on the fluorescence intensity measured at 470 nm, the permeated amount of troxerutin was calculated using the resulting value and the volume of the extraction solvent.

IL-1β = test: Inhibition of capsaicin-induced cytokine IL-1β expression in human keratinocytes (real-time PCR); conditions: Troxerutin 1 ppm; 1 hour pre-treatment, 50 µm capsaicin, 24 hours
Description: To confirm the anti-inflammatory effect of the combination of troxerutin and the arginine-glutamate eutectic mixture, the inhibitory effect on the production of a sensitive irritation factor (cytokine) induced by capsaicin was evaluated in a human keratinocyte cell line.
Specifically, human keratinocytes were pre-treated with each sample as shown in Table 2 below for 1 hour, and then 50 µm capsaicin was added, followed by incubation for 24 hours. After incubation, RNA was extracted and cDNA was synthesized, followed by real-time polymerase chain reaction (real-time PCR) to measure the amount of IL-1β. The sensitive inflammatory cytokine (IL-1β) production inhibitory ability was evaluated using the following equation, and the results are shown in Table 2. [formula]
* Negative control: Human keratinocyte cell line treated with capsaicin only [Table 2]

SMILES: CNC(=N)NCCC[C@H](N)C(=O)O
- NO Production Inhibitory Ability (%) (RAW 264.7 cells; Positive control 100 µM): 80.9%

SMILES: C[C@@H]1O[C@@H](OC[C@H]2O[C@@H](Oc3c(-c4ccc(OCCO)c(OCCO)c4)oc4cc(OCCO)cc(O)c4c3=O)[C@H](O)[C@@H](O)[C@@H]2O)[C@H](O)[C@H](O)[C@H]1O
- Permeability [1]: 0.086%
- Troxerutin Permeation Amount ([1]; receptor chamber PBS): 0.86 µg
- IL-1β Inhibition Rate (%) (IL-1β): 25.38%
- NO Production Inhibitory Ability (%) (RAW 264.7 cells; Troxerutin 1 ppm, 30 min pre-treatment): 0%
